Measurements taken from patent US12258561B2, “Compositions and methods to promote bone formation and their uses including for the treatment of cancer” (THE RESEARCH FOUNDATION FOR THE STATE UNIVERSITY OF NEW YORK, priority 2014, dated 2025).

Assays:
[1] = test system: posterolateral lumbar spine; test: Rat posterolateral spinal fusion of L5-L6 vertebrae, microCT; assay type: in vivo, Sprague-Dawley rats; details: collagen sponge implant; 25-ng BMP2 or 1-mM naloxone, 2-months
From the text: Rat Posterolateral Spinal Fusion of L5-L6 Vertebrae: 20 male, […] skeletally mature Sprague-Dawley rats underwent bilateral lumbar posterolateral spinal fusion at the L5-L6 vertebrae. Treatment groups will consist of the following: 1) sham surgery control; 2) collagen sponge implant; 3) BMP2+collagen sponge implant; 4) naloxone+collagen sponge implant. Under sterile conditions a 2-cm long posterior midline incision centered at L5-L6 vertebrae was made. A muscle-splitting approach was used, lateral to the facet joints, to expose the transverse processes of a particular vertebra. A high-speed 1-mm burr was used to decorticate the transverse processes of the L5-L6 vertebrae. Implants were prepared and implanted between the transverse processes bilaterally in the paraspinal muscle bed. Bovine collagen sponge implants will be prepared (approximately 1-cm×1-cm) and then soaked in PBS, 25-ng BMP2, 1-mM naloxone (400-μg in 10-μL). Animals were euthanized 2-months (n=5 rats per time point per treatment group for a total of n=20 rats) spines were collected and prepared for micro-CT (μCT) analysis.

[2] = test system: MSC cultures induced to become osteoblasts; test: Osteogenesis: mineral formation in MSC with osteoinduction media (alizarin red-S staining); assay type: cell-based, human; details: positive control, relative to controls
From the text: Methods: Human Bone Marrow was Collected from Consenting Adult Patients undergoing either an elective primary proximal femoral total hip arthroplasty or elective primary distal femoral total knee arthroplasty (n=6, mean age 65) as a part of an IRB approved study. Human MSC were derived from the adherent fraction of cells derived from each whole bone marrow aspirate collected, while the monocyte population was collected from the non-adherent fraction of the bone marrow. The monocyte fraction was enriched through sub-culture with 100-ng/mL recombinant human macrophage colony-stimulating factor (MCSF; Wyeth). In parallel experiments described below, the femurs from 3-week (n=10) and 16-week (n=20) old male mice were collected and then the bone marrow was flushed from the femur according to the following: A 21-gauge needle was inserted into the femoral intramedular canal after the removal of the proximal and distal ends of the femur. Media was then carefully passed through the proximal end of the femur, which forced the bone marrow to pass out of the bone. Finally, the bone marrow pellet was mechanically disassociated using an 18-gauge needle and then passed through a 70-μm mesh filter. These whole bone marrow aspirates were used to generate osteoclasts. […]

[3] = test system: unicortical defect in mouse tibia; test: Opioid antagonist containing collagen implant in unicortical defect model, microCT; assay type: in vivo, C57BL/6 mice; details: 7 days after surgery
From the text: Implantation of Opioid Antagonist Containing Collagen Implant into a Unicortical Defect Model: Male 5-week old C57BL/6 mice (n=5 per treatment group for a total of 25 total animals) were used in this study. Treatment groups consisted of the following: 1) PBS+collagen sponge; 2) met5+collagen sponge; 3) BMP2+collagen sponge; 4) naltrexone+collagen sponge; 5) naloxone+collagen sponge. Unicortical defects were surgically administered through a small incision (approximately 3-mm) made just below the knee joint, located on the medial side of the tibia just below the tibial tuberosity on the tibial crest. In 5-weeks old male mice, the physeal plate is clearly visible and the drill bit was placed approximately 1-mm below this point. The drill-bit produces a unicortical defect with dimensions 300-μm diameter×1-mm depth. Bovine collagen sponge implants (Duraform) were prepared (approximately 1-mm×1-mm) and then soaked in PBS, 50-μM (28.7-μg in 10-μL), met-5 enkephalin (met5), 25-ng BMP2, 1-mM naltrexone (378-μg in 10-μL) or naloxone 1-mM (400-μg in 10-μL) (n=5 for each group, 25 total animals). […] In parallel, a separate group of animals served as non-surgical controls. Mice were euthanized 7-days after surgery, hind limbs were collected and tibias were prepared for micro-CT (μCT) analysis.
MicroCT Analysis of Unicortical Defects: High-resolution images of the tibia were acquired with μCT imaging system (μT40; Scanco Medical). Tibias were scanned at 45-keV with an isotropic voxel size of 12-μm. An analysis region was selected from axial sections to include the entire unicortical defect bounded by the endosteal cortical wall. The volume corrected bone volume (bone volume/total volume; By/Tv), trabecular number (TbN) and trabecular thickness (TbTh) were calculated using the Scanco software.

[4] = 25-ng BMP2, 1-mM naltrexone or 1-mM naloxone

B1: BMP2: recombinant bone morphogenic protein-2, positive control; b73 names recombinant human BMP2/BMP7-ligand (R&D Systems) (protein, UniProt P12643 283-396, looked up)
Bone morphogenetic protein 2: QAKHKQRKRLKSSCKRHPLYVDFSDVGWNDWIVAPPGYHAFYCHGECPFPLADHLNSTNHAIVQTLVNSVNSKIPKACCVPTELSAISMLYLDENEKVVLKNYQDMVVEGCGCR
bone formation in the lumbar spine versus collagen implants alone [1]: increased bone formation over the collagen implants alone
mineral formation [2]: increased mineral formation relative to controls
Bv/Tv relative to non-surgical controls [3]: increased relative to non-surgical controls
trabecular thickness (TbTh) relative to the control non-surgical group [3]: increased within the defect significantly
increase in Bv/Tv relative to the PBS treated group [3, 4]: 32.4%
increase in Bv/Tv relative to the surgical control group [3, 4]: 55.6%
